From PubChem BioAssay AID463141 (The Scripps Research Institute Molecular Screening Center, 2010)
The entries are a selection whose mix differs from that of the whole data set. Activity calls are given as the source filed them.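 How the source made its calls: active means activation above the mean of all tested compounds plus 3 SD (cut at about 21% in these data); inactive means the rest.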

Sequences of proteins named here, by UniProt entry; tags and fusion partners are left off.
UniProt P42574, whole entry D9A/D28A/D175A: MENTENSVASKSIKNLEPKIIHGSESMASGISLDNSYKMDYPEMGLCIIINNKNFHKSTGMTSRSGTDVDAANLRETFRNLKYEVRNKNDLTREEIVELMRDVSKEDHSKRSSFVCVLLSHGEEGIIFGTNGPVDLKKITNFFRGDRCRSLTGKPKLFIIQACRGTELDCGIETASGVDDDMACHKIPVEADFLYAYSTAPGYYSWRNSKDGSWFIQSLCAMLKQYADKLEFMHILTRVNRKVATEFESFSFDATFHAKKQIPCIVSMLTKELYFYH

Each molecule was assayed against Caspase-3 (Homo sapiens) (UniProt P42574) (assay: procaspase-3 enzyme activation – biochemical, absorbance, PC-3 D3A mutant, single concentration, primary screen (AID 463141;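 further: 0% = DMSO alone and 100% = DMSO wells spiked with extra 5 µM PC-3 D3A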)). Conditions: recombinant procaspase-3 D3A, Ac-DEVD-pNA absorbance 405 nm; at 8.5 µM; active compounds read high.

Row | Structure (SMILES) | activation
1 | O=C(NCC1(N2CCCCC2)CCCCC1)c1cccc(C(F)(F)F)c1 | inactive: 10%
2 | O=C(NCC1(N2CCOCC2)CCCCC1)c1cc(=O)[nH]c2ccccc12 | inactive: -3.32%
3 | COc1cc(C(=O)NCC2(N3CCCCC3)CCCCC2)ccc1OC(F)F | inactive: -1.57%
4 | COc1ccc(NC2CCN(C(=O)OC(C)(C)C)CC2)cc1 | inactive: -1.31%
5 | CN1CCN(CCOC(=O)C(O)(c2ccccc2)c2ccccc2)CC1 | inactive: -7.34%
6 | O=C(NCC1(N2CCCCC2)CCCCC1)c1ccc(OC(F)F)cc1 | inactive: 2.44%
7 | CCN1CCC(Nc2ccc(Cl)cc2)CC1 | inactive: 6%
8 | N#CC1(Nc2ccccc2)CCN(CCc2ccccc2)CC1 | inactive: 5.13%
9 | O=C(NCC1(N2CCCCC2)CCCCC1)c1cccc([N+](=O)[O-])c1 | inactive: 0.85%
10 | CN1CCC(Nc2cccc(F)c2)CC1 | inactive: 7.71%
11 | O=C(NCC1(N2CCCCC2)CCCCC1)c1cncc(Br)c1 | inactive: 7.71%
12 | CC(C)c1ccc(NC2CCN(C(=O)OC(C)(C)C)CC2)cc1 | inactive: 7.71%
13 | COc1ccc(CN(CCCl)CCCl)cc1Cl | inactive: 12.8%
14 | CN(C)c1cccc(C(=O)NCC2(N3CCCCC3)CCCCC2)c1 | inactive: 7.77%
15 | COc1cc(OC)c(C(=O)NCC2(N(C)C)CCCCC2)cc1OC | inactive: 1.77%
16 | O=C(NCC1(N2CCOCC2)CCCCC1)c1cc(F)c(F)cc1Cl | inactive: 7.18%
17 | O=C(NCC1(N2CCCCC2)CCCCC1)c1ccc(Cl)nc1 | inactive: -3.04%
18 | Cc1cc(C)cc(N(C(=O)c2ccccc2)C2CCN(C(=O)OC(C)(C)C)CC2)c1 | inactive: -1.71%
19 | O=C(NCC1(N2CCOCC2)CCCCC1)c1cc2ccccc2o1 | inactive: 7.2%
20 | N#CC1(Nc2ccccc2)CCN(Cc2ccccc2)CC1 | inactive: -0.69%
21 | O=C(NCC1(N2CCCCC2)CCCCC1)c1ccc(Cl)s1 | inactive: 11.5%

Row | Structure (SMILES) | activation
22 | O=C(OC1CN2CCC1CC2)C1c2ccccc2Oc2ccccc21 (stereo not drawn) | inactive: 3.85%
23 | COc1ccc(Cl)cc1C(=O)NCC1(N2CCOCC2)CCCCC1 | inactive: 7.87%
24 | CCOC(=O)N1CCC(Nc2ccc(OC)cc2)CC1 | inactive: 0.37%
25 | COc1ccc(C(=O)NCC2(N3CCCCC3)CCCCC2)cc1 | inactive: 10.3%
26 | COc1ccc(C(=O)NCC2(N3CCCCC3)CCCCC2)c(OC)c1OC | inactive: 1.12%
27 | CC(C)(C)OC(=O)N1CCC(N(C(=O)c2ccccc2)c2ccc(F)cc2)CC1 | inactive: 5.34%
28 | O=C(NCC1(N2CCCCC2)CCCCC1)c1ccc(=O)[nH]c1 | inactive: -0.96%
29 | O=C(NCC1(N2CCCCC2)CCCCC1)c1cccs1 | inactive: 4.81%
30 | CSc1ccccc1C(=O)NCC1(N2CCCCC2)CCCCC1 | inactive: 0.99%
31 | CCOC(=O)N1CCC(Nc2cccc(C)c2)CC1 | inactive: 10.8%
32 | Cc1ccc(OCC(C)C)c(CN(CCCl)CCCl)c1 | inactive: -4.73%
33 | CCOc1ccc(C)cc1CN(CCCl)CCCl | inactive: 4.52%
34 | O=C(NCC1(N2CCCCC2)CCCCC1)c1ccc(F)cc1 | inactive: 0.49%
35 | COc1ccc(NC2CCN(CCc3ccccc3)CC2)c(OC)c1 | inactive: -5.45%
36 | CCN1CCC(Nc2cccc(F)c2)CC1 | inactive: 2.97%
37 | O=C(NCC1(N2CCCCC2)CCCCC1)c1ccco1 | inactive: -7.23%
38 | CN(C)c1ccc(C(=O)NCC2(N3CCCCC3)CCCCC2)cc1 | inactive: 3.05%
39 | COc1cc(OC)cc(C(=O)NCC2(N3CCCCC3)CCCCC2)c1 | inactive: -2.65%
40 | Cc1ccc(C(=O)NCC2(N3CCCCC3)CCCCC2)o1 | inactive: -0.74%
41 | Fc1ccccc1NC1CCN(Cc2ccccc2)CC1 | inactive: 6.03%
42 | COc1cccc(C(=O)N(c2cc(C)cc(C)c2)C2CCN(C(=O)OC(C)(C)C)CC2)c1 | inactive: 14%

Row | Structure (SMILES) | activation
43 | COc1cc(OC)cc(C(=O)NCC2(N3CCOCC3)CCCCC2)c1 | inactive: 0.81%
44 | CCC(CO)(C(=O)OC1CN2CCC1CC2)c1ccccc1 (stereo not drawn) | inactive: 6.78%
45 | CN1CCC(Nc2ccc(Cl)cc2)CC1 | inactive: 7.11%
46 | CCCOc1ccc(C)cc1CN(CCCl)CCCl | inactive: 8.74%
47 | CCOc1ncccc1C(=O)NCC1(N2CCOCC2)CCCCC1 | inactive: -11.9%
48 | CN1CCC(Nc2ccc(F)c(Cl)c2)CC1 | inactive: 3.92%
49 | CC(C)(C)OC(=O)N1CCC(Nc2ccccc2)CC1 | inactive: 1.88%
50 | O=C(O)C1(Nc2ccccc2)CCN(Cc2ccccc2)CC1 | inactive: -2.34%
51 | CCCOc1ccc(C(=O)NCC2(N(C)C)CCCCC2)cc1 | inactive: 1.14%
52 | CCOC(=O)N1CCC(Nc2ccc(C)cc2)CC1 | inactive: 8.17%
53 | N/C(=N\O)c1c(N)no[n+]1[O-] | inactive: -4.81%
54 | CCc1cc(C(=O)NCC2(N3CCCCC3)CCCCC2)sc1C | inactive: 7.64%
55 | O=C(OC1CN2CCC1CC2)C1c2ccccc2C=Cc2ccccc21 (stereo not drawn) | inactive: -5.53%
56 | COc1cc(C(=O)NCC2(N3CCOCC3)CCCCC2)cc(OC)c1C | inactive: 8.98%
57 | O=C(NCC1(N2CCOCC2)CCCCC1)c1cc(Br)ccc1Cl | inactive: -5.65%
58 | COc1ccc(C(=O)NCC2(N3CCOCC3)CCCCC2)cc1OC | inactive: -4.81%
59 | CN(C)C1(CNC(=O)c2cccc(C#N)c2)CCCCC1 | inactive: -3%
60 | c1ccc(CN2CCC(Nc3ccccc3)CC2)cc1 | inactive: 5.45%
61 | CCCN1CCC(Nc2cc(OC)cc(OC)c2)CC1 | inactive: 2.19%
62 | N#Cc1ccc(C(=O)NCC2(N3CCCCC3)CCCCC2)cc1 | inactive: 3.08%
63 | CC(C)(C)OC(=O)N1CCC(N(C(=O)c2ccccc2)c2ccc(Cl)cc2)CC1 | inactive: 10.6%
